Laboratory results: PubChem BioAssay AID2648 (Johns Hopkins Ion Channel Center, 2010)
The entries are a selection whose mix differs from that of the whole data set. The source made the active and inactive calls.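 The calls were made as follows: active = fluorescence ratio B-score, a plate-corrected score, at least three library SD, with initial intensity B-score within 5 SD; inactive = the rest.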

Protein sequences, listed by entry. Tags and fused reporters are not part of them.
UniProt P51787, whole entry: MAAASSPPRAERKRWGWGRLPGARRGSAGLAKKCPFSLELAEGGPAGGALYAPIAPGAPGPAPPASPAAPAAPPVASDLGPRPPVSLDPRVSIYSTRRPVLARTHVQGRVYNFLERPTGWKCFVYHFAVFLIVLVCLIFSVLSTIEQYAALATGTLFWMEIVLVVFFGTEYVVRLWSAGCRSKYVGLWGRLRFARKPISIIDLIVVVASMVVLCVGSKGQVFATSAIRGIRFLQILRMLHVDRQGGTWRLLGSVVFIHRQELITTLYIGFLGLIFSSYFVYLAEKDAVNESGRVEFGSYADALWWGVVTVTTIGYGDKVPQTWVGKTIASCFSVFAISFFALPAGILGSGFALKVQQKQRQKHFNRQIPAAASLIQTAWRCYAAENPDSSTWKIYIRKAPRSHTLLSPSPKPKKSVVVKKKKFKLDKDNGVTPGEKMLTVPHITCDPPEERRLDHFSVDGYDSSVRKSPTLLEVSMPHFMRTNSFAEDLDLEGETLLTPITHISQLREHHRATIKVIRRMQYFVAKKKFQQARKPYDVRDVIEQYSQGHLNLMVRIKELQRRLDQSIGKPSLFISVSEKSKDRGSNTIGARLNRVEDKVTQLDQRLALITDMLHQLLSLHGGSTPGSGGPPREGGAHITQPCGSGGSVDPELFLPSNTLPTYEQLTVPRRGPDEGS

biological target: Potassium voltage-gated channel subfamily KQT member 1 (Homo sapiens) (UniProt P51787); test: potentiators or activators of KCNQ1 channel, primary screen, cell-based, thallium flux, high-throughput (AID 2648); conditions: CHO-K1 KCNQ1, thallium flux FluxOR fluorescence; at 10 µM

| SMILES | outcome |
| --- | --- |
| Cc1cc(SC(NC=O)C(Cl)(Cl)Cl)ncn1 (configuration not stated) | inactive |
| CP(=O)(Oc1ccccc1)OC(c1ccccc1)C(F)(F)F (configuration not stated) | inactive |
| Cc1cccc(C)c1OP(C)(=O)Nc1ccc(SC(F)(F)F)cc1 (configuration not stated) | inactive |
| CP(=O)(Nc1ccc(SC(F)(F)F)cc1)Oc1ccc(Cl)cc1 (configuration not stated) | inactive |
| COP1(=S)c2c(C)nn(CCC#N)c2N=C(c2ccc(F)cc2)N1C (configuration not stated) | inactive |
| Cc1cc(C)cc(OP(C)(=O)Nc2ccc(SC(F)(F)F)cc2)c1 (configuration not stated) | inactive |
| O=C(Nc1ccncc1[N+](=O)[O-])c1ccc([N+](=O)[O-])cc1[N+](=O)[O-] | inactive |
| CCc1ccc(OP(C)(=O)N2CCN(c3ccc([N+](=O)[O-])cc3)CC2)cc1 (configuration not stated) | inactive |
| O=C(COc1ccccc1)OC1CN2CCC1CC2 (configuration not stated) | inactive |
| CP(=O)(NC(=O)Nc1ccccc1)Oc1ccccc1 (configuration not stated) | inactive |
| CCOC(=O)c1ccc(NC(=O)C(C)(CCl)SC)cc1 (configuration not stated) | inactive |
| CCOC(=O)c1ccc(NP(C)(=O)Oc2ccc(OC)cc2)cc1 (configuration not stated) | inactive |
| O=[N+]([O-])c1cc([N+](=O)[O-])c(O)c([N+](=O)[O-])c1.c1ccc(Oc2ccncc2)cc1 | inactive |
| O=C(OC1CN2CCC1CC2)c1cccc([N+](=O)[O-])c1 (configuration not stated) | inactive |
| CCOP(C)(=S)SCC(=O)NC(C)C(=O)O (configuration not stated) | inactive |
| CP(=O)(Nc1ccccn1)Oc1ccc(Cl)cc1 (configuration not stated) | inactive |
| CCC(C)N(CC(C)C)C(=S)SC(NC(C)=O)C(Cl)(Cl)Cl (configuration not stated) | inactive |
| CCN(CC)CCCOC(=O)C(O)(c1ccccc1)c1ccccc1 | inactive |
| Cc1cc(=O)[nH]c(N[N+](=O)[O-])n1 | inactive |
| O=C(OC1CN2CCC1CC2)C12CC3CC(CC(C3)C1)C2 (configuration not stated) | inactive |
| Cc1c2c(nc3ccccc13)SC(C(Cl)Cl)C2 (configuration not stated) | inactive |
| COc1cc(I)ccc1[As](=O)(O)O | inactive |
| COc1ccc2nc(NP(=O)(c3ccccc3)c3ccccc3)sc2c1 | inactive |
| COc1ccc(N/C(=N/P(=O)(N2CCOCC2)N2CCOCC2)N2CCOCC2)cc1 | inactive |

| SMILES | outcome |
| --- | --- |
| O=[As](O)(c1ccc(O)cc1)c1ccccc1O | inactive |
| C[As](=O)(O)c1cccc(C(=O)O)c1 | inactive |
| O=[N+]([O-])c1cc([N+](=O)[O-])c(Nc2cccnc2)c([N+](=O)[O-])c1 | inactive |
| Cc1ccc2nc3c(c(C)c2c1)CC(C(Cl)Cl)S3 (configuration not stated) | inactive |
| O=[N+]([O-])c1ccc2c(c1)C=Nc1ccccc1O2 | inactive |
| Cc1cccc(C)c1OP(C)(N)=O (configuration not stated) | inactive |
| CC(C)(C)c1ccc(OP(C)(=O)Nc2ccc(SC(F)(F)F)cc2)cc1 (configuration not stated) | inactive |
| Cc1ccc(OP(=O)(Nc2ccc([N+](=O)[O-])cn2)Oc2ccc(C)cc2)cc1 | inactive |
| CC(C)c1ccc(OP(=O)(Nc2ccccn2)Oc2ccccc2F)cc1 (configuration not stated) | inactive |
| Cc1ccc(NP(C)(=O)Oc2ccccc2)c(C)c1 (configuration not stated) | inactive |
| COc1ccccc1OP(C)(=O)Nc1ccc(C)cc1 (configuration not stated) | inactive |
| ClCCSc1nnc(-c2cccnc2)o1 | inactive |
| CCOC(=O)c1ccc(NP(C)(=O)Oc2ccccc2)cc1 (configuration not stated) | inactive |
| Cc1cc(C)cc(OP(C)(N)=O)c1 (configuration not stated) | inactive |
| O=[N+]([O-])c1cc([N+](=O)[O-])c(-c2ccn[nH]2)s1 | inactive |
| COc1ccc(OP(C)(=O)Nc2cccc(F)c2)cc1 (configuration not stated) | inactive |
| CCN(CC)C(=S)SC(NC=O)C(Cl)(Cl)Cl (configuration not stated) | inactive |
| COc1ccccc1OP(C)(=O)Nc1cc(Cl)ccc1C (configuration not stated) | inactive |
| CC(C)NC(=O)NP(=O)(Oc1ccccc1)Oc1ccccc1 | inactive |
| O=C(O)c1ccccc1[As](=O)(O)O | inactive |
| CC(=O)Nc1ccc([As](=O)(O)O)cc1 | inactive |
| Cc1cc(C)cc(OP(C)(=O)Nc2cccc(C(F)(F)F)c2)c1 (configuration not stated) | inactive |
| O=P(Nc1nc2ccc(Cl)cc2s1)(c1ccccc1)c1ccccc1 | inactive |
| Cc1ccc(NP(=O)(Oc2ccccc2F)Oc2ccccc2F)nc1 | inactive |

| SMILES | outcome |
| --- | --- |
| CN(C(=O)Cc1ccc(Cl)c(Cl)c1)[C@H]1CCCC[C@@H]1N1CCCC1 | inactive |
| COc1ccccc1OP(C)(=O)Nc1ccc(C)c(C)c1 (configuration not stated) | inactive |
| CCOP(=O)(Nc1ccccc1)OCC | inactive |
| Cc1cc(SC(NC(=O)c2ccc(F)cc2)C(Cl)(Cl)Cl)ncn1 (configuration not stated) | inactive |
| COc1ccc(OP(C)(=O)Nc2ccccc2Br)cc1 (configuration not stated) | inactive |
| Cc1nc2ccc3ccccc3c2o1.O=[N+]([O-])c1cc([N+](=O)[O-])c(O)c([N+](=O)[O-])c1 | inactive |
| O=[N+]([O-])c1cc([N+](=O)[O-])c(CCN2CCOCC2)c([N+](=O)[O-])c1 | inactive |
| CCN(N=Nc1nonc1N)c1nonc1N | inactive |
| CP(=O)(OCCOc1ccccc1)OCCOc1ccccc1 | inactive |
| CP(=O)(Nc1ccc(Cl)cc1Cl)Oc1ccccc1 (configuration not stated) | inactive |
| Nc1cccc2ccc([As](=O)(O)O)cc12 | inactive |
| NC(=O)c1cc([N+](=O)[O-])cc([N+](=O)[O-])c1N | inactive |
| Cc1ccc(N/C(=N/P(=O)(N2CCOCC2)N2CCOCC2)N2CCOCC2)cc1 | inactive |
| COc1ccccc1OP(C)(=O)Nc1ccc(Br)cc1 (configuration not stated) | inactive |
| Cc1ccc(OP(=O)(Nc2nccs2)Oc2ccc(C)cc2)cc1 | inactive |
| COc1ccc(OP(C)(=O)Nc2ccccn2)cc1 (configuration not stated) | inactive |
| COc1ccccc1OP(=O)(Nc1ccc(C)cn1)Oc1ccccc1OC | inactive |
| Clc1ccc(Cl)c(NC2=NCC(CBr)S2)c1 (configuration not stated) | inactive |
| CN(C)CCOC(=O)C(O)(c1ccccc1)C1CCCC1 (configuration not stated) | inactive |
| CN1CCCC(OC(=O)C(c2ccccc2)c2ccccc2)C1 (configuration not stated) | inactive |
| CC(C)CC(=O)NC(Sc1ccc(Cl)cc1)C(Cl)(Cl)Cl (configuration not stated) | inactive |
| O=[N+]([O-])c1cc([N+](=O)[O-])c(Nc2ccccn2)c([N+](=O)[O-])c1 | inactive |
| Cc1c(NP(C)(=O)Oc2ccc(C(C)C)cc2)c(=O)n(-c2ccccc2)n1C (configuration not stated) | inactive |
| Nc1cc(N)c2nonc2c1[N+](=O)[O-] | inactive |

| SMILES | outcome |
| --- | --- |
| Cc1c2non([O-])c-2c(C)[n+](=O)[n+]1[O-] | inactive |
| O=C(NC(Sc1ccncn1)C(Cl)(Cl)Cl)c1ccccc1 (configuration not stated) | inactive |
| Oc1ccccc1CNc1ccccn1 | inactive |
| COc1ccccc1OP(C)(=O)Nc1ccc(C)cc1C (configuration not stated) | inactive |
| CP(=O)(Nc1ccccn1)Oc1ccccc1 (configuration not stated) | inactive |
| CCc1ccc(OP(C)(=O)O)cc1 | inactive |
| COc1ccc(C2=NCC(CBr)S2)cc1 (configuration not stated) | inactive |
| COc1ccc(OP(C)(=O)Nc2ccc(Br)cc2)cc1 (configuration not stated) | inactive |
| CCN(CC)CC(O)COC(=O)C(O)(c1ccccc1)C1CCCCC1 (configuration not stated) | inactive |
| O=C(OCCCN1CCCC1)C(O)(c1ccccc1)C1CCCCC1 (configuration not stated) | inactive |
| COc1ccccc1OP(C)(=O)Nc1c(C)n(C)n(-c2ccccc2)c1=O (configuration not stated) | inactive |
| O=[N+]([O-])c1cccc2n[nH]nc12 | inactive |
| CC(=O)N1C2C3N(C(C)=O)C1C1N(C(C)=O)C(C(N1C(C)=O)N3C(C)=O)N2C(C)=O | inactive |
| CCc1nc2c(n1)c1c(non1O)c1c2no[n+]1[O-] | inactive |
| O=[N+]([O-])c1cc([N+](=O)[O-])c(CCNc2ccccc2)c([N+](=O)[O-])c1 | inactive |
| CCc1ccc(OP(C)(=O)Nc2cccnc2)cc1 (configuration not stated) | inactive |
| Cc1ccc(NP(=O)(Oc2ccccc2)Oc2ccccc2)nc1 | inactive |
| CP(=O)(Oc1ccccc1)N1CCOC1=O (configuration not stated) | inactive |
| C[N+]1=C2C=CC=CC=C2SC12C([N+](=O)[O-])=CC([N+](=O)[O-])=C[C-]2[N+](=O)[O-] (configuration not stated) | inactive |
| CC(C)(C)c1ccc(OP(C)(=O)O)cc1 | inactive |
| Nc1ccc([As](=O)(O)c2ccc(N)cc2)cc1 | inactive |
| COc1ccccc1OP(C)(=O)Nc1ccccc1Br (configuration not stated) | inactive |
| CP(=O)(Nc1ccc(Cl)cc1)Oc1ccc(F)cc1 (configuration not stated) | inactive |
| CCN(/C(=N/P(=O)(N1CCOCC1)N1CCOCC1)N1CCOCC1)c1ccc(OC)cc1 | inactive |

| SMILES | outcome |
| --- | --- |
| CN(C)C(=O)OCCc1n(C)cc[n+]1C | inactive |
| CN(C)C(=O)c1c([N+](=O)[O-])cc([N+](=O)[O-])cc1[N+](=O)[O-] | inactive |
| CC(C)=N/N=C(\N)N[N+](=O)[O-] | inactive |
| CC1CCN(C(=O)Oc2c(Cl)cc(Cl)c3cccnc23)CC1 | inactive |
| Nc1ccc2c(ccc3cccnc32)n1.O=[N+]([O-])c1cc([N+](=O)[O-])c(O)c([N+](=O)[O-])c1 | inactive |
| O=C(Nc1cc([As](=O)(O)O)ccc1O)c1ccccc1 | inactive |
| CCOC(=O)c1ccc(NP(C)(=O)Oc2ccc(Cl)cc2)cc1 (configuration not stated) | inactive |
| CP(=O)(OC12CC3CC(CC(C3)C1)C2)OC12CC3CC(CC(C3)C1)C2 | inactive |
| CC(C)(C)C(=O)NC(Sc1ccncn1)C(Cl)(Cl)Cl (configuration not stated) | inactive |
| O=[N+]([O-])c1ncn(CCn2ncnc2[N+](=O)[O-])n1 | inactive |
| O=[N+]([O-])c1cccc(NC2=NCC(CBr)S2)c1 (configuration not stated) | inactive |
| O=C(O)CNc1ccc([As](=O)(O)O)cc1 | inactive |
| COc1ccc(OP(C)(=O)Nc2cccc(Br)c2)cc1 (configuration not stated) | inactive |
| O=P(Nc1ccccn1)(c1ccc(Br)cc1)c1ccc(Br)cc1 | inactive |
| CN(C)C1(CNC(=O)c2ccc(Cl)c(S(N)(=O)=O)c2)CCCCC1 | inactive |
| C[C@H]1OP(=O)(Oc2ccccc2)[C@H](O)[C@H](O)[C@H]1N=[N+]=[N-] (some centres not stated) | inactive |
| CN(C)CCOC(=O)C(O)(c1ccccc1)C1CCCCC1 (configuration not stated) | inactive |
| O=P(Nc1nc2ccccc2s1)(c1ccccc1)c1ccccc1 | inactive |
| COc1ccc(NP(C)(=O)Oc2ccccc2OC)cc1 (configuration not stated) | inactive |
| O=[N+]([O-])c1ccc(O)c(/C=N/Nc2ccc([N+](=O)[O-])cc2[N+](=O)[O-])c1 | inactive |
| O=[N+]([O-])c1ncn(CCn2cnc([N+](=O)[O-])n2)n1 | inactive |
